Assay results: PubChem BioAssay AID875 (National Center for Advancing Translational Sciences (NCATS), 2007)
The list shows a part of the results, in another mix than the full data. Calls of active or inactive are those of the source. Calls come from the whole dose curve; as a rule, active = well fitted inhibition curve with a large enough effect; inconclusive = small, poorly fitted or top-dose-only effect; inactive = no such curve, though single readings can be large or run the other way.

The chains behind the UniProt entries cited, without tags or fusion partners.
UniProt P38398, whole entry: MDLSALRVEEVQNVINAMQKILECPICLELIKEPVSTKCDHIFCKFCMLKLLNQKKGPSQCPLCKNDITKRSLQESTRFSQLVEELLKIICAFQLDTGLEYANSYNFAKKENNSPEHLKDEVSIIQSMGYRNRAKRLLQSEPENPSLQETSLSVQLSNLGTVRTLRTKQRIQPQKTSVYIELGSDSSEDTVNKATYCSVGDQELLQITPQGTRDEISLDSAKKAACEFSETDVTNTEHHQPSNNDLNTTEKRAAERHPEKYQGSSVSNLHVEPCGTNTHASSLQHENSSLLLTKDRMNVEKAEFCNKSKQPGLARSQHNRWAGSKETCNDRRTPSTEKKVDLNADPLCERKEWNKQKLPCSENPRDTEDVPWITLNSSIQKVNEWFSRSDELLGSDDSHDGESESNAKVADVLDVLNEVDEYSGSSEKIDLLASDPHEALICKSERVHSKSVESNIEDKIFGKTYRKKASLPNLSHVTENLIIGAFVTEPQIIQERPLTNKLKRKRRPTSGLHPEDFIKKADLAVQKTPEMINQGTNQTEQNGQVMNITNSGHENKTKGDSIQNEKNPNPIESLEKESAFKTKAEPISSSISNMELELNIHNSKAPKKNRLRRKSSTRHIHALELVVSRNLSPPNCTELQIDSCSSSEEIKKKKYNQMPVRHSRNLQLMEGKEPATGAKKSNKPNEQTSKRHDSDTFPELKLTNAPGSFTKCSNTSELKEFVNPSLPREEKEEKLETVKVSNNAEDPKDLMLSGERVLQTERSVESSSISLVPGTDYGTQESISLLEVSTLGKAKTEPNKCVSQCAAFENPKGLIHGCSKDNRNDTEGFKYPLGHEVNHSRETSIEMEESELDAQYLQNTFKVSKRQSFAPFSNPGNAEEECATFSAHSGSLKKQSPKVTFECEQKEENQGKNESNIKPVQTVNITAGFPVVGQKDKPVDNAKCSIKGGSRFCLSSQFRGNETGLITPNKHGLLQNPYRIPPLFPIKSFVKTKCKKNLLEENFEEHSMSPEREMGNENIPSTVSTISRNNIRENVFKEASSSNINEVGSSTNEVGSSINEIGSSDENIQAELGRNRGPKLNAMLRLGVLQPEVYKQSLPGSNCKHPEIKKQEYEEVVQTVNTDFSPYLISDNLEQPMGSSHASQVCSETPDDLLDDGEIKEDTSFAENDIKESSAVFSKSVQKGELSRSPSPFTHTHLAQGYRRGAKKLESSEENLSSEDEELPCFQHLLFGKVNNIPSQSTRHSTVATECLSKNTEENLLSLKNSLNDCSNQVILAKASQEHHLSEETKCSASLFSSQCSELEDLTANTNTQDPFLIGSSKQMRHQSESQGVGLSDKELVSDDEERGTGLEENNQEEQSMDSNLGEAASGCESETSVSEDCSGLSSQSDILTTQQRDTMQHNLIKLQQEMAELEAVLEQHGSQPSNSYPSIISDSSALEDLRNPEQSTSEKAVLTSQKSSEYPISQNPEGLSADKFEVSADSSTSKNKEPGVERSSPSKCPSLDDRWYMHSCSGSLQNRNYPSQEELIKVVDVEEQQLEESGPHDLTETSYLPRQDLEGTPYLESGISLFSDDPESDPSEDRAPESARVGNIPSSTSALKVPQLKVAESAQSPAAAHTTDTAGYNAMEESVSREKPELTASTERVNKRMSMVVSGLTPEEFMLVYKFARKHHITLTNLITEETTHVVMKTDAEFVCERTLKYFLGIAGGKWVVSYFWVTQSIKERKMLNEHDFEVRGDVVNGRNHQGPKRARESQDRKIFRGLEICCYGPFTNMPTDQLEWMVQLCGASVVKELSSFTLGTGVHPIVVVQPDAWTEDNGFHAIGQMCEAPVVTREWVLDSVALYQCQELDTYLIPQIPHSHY

molecular target: Breast cancer type 1 susceptibility protein (Homo sapiens) (UniProt P38398); test: qHTS Assay for Inhibitors of BRCT-Phosphoprotein Interaction (Green Fluorophore); conditions: BRCA1 BRCT-phosphopeptide binding, green fluorescence polarization; at 76.9 µM (top of the series);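 note: plate controls were peptide without protein for full effect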
Method: NIH Molecular Libraries Screening Centers Network [MLSCN]
NIH Chemical Genomics Center [NCGC]
PI Name: Natarajan, Amarnath; University of Texas
A complex of BRCT (C-terminal portion of BRCA1, MW ~35 kDa, His-tagged) and fluorescently labeled pBACH1 phosphorylated 10 aa peptide fragment of BACH1, a helicase implicated in DNA repair, is incubated with library members. Inhibitors of BRCT-pBACH1 binding are detected by a decrease in the fluorescence polarization (FP) of the fluorophore. In order to minimize the effect of fluorescence artifacts and to increase the overall robustness of the screen, the compound library members were incubated in separate reactions with fluorescein labeled probe-protein complexes. Protein and labeled probes were supplied by Dr. Amarnath Natarajan, Department of Pharmacology and Toxicology, University of Texas Medical Branch Galveston, TX.
Assay Buffer: 16mM Na2HPO4, 4 mM NaH2PO4, 150 mM NaCl, 1 mM EDTA, 1 mM DTT, 0.02% NaN3, and 0.01% Tween 20 at pH 7.3.
100 nM labeled decapeptide/250 nM protein in columns 1, 2, 5 - 48. […]
via Kalypsys PinTool. The plates were incubated for 12 min at room temperature, and then read on ViewLux (Perkin-Elmer) High throughput CCD imager using FITC for the fluorescein-labeled decapeptide probe polarization filter sets. […]

SMILES	activity change, negative = inhibition
O=[N+]([O-])C(Cl)(Cl)Cl	inactive: -1.01%
CN(CCCl)CCCl	inactive: -0.783%
